Experimental data published in patent publication US10759751B2, “Substituted spirocyclohexanes as muscarinic M1 receptor and/or M4 receptor agonists” (Heptares Therapeutics Limited, priority 2016, dated 2020).

Amino acid sequences for entries named in this document (tags omitted).
UniProt P11229, whole entry: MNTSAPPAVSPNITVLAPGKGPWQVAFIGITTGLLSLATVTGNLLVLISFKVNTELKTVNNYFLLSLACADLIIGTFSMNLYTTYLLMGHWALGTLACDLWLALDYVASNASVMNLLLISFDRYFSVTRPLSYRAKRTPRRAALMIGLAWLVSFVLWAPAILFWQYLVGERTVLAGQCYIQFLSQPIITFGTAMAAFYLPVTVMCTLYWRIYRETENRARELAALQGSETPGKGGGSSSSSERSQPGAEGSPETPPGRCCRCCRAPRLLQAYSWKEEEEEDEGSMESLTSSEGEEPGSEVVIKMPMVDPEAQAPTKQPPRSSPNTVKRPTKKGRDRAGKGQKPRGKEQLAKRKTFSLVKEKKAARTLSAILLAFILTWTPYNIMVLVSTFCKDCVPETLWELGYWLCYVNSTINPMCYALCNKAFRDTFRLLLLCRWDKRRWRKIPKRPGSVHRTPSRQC
UniProt P08173, whole entry: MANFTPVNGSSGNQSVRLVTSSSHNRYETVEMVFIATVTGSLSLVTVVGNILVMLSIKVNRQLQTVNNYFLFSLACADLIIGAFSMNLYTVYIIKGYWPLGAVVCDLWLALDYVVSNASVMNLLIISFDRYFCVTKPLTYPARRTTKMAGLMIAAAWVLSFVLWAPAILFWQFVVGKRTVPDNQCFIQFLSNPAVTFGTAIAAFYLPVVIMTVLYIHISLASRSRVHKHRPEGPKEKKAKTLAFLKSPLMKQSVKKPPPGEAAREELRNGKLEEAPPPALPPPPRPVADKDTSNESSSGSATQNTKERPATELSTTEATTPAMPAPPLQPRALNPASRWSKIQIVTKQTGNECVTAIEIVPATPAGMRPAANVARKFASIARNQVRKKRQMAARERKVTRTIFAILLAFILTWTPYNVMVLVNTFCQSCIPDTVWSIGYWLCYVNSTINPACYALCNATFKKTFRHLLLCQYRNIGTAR
UniProt P20309, whole entry: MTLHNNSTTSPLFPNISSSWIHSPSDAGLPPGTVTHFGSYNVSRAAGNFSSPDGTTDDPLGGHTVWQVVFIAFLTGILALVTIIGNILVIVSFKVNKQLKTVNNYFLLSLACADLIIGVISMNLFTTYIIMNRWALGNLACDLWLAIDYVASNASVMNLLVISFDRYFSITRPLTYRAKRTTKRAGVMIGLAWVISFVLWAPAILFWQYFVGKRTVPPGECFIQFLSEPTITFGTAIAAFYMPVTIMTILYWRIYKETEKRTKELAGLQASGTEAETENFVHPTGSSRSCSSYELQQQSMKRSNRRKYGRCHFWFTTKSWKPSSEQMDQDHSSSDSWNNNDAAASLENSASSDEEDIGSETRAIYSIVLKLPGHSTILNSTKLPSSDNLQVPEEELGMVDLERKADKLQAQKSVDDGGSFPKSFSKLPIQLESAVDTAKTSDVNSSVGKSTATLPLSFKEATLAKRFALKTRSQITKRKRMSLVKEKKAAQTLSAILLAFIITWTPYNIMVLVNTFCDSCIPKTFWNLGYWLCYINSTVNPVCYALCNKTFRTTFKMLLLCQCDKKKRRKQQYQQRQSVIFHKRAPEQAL
UniProt P08172, whole entry: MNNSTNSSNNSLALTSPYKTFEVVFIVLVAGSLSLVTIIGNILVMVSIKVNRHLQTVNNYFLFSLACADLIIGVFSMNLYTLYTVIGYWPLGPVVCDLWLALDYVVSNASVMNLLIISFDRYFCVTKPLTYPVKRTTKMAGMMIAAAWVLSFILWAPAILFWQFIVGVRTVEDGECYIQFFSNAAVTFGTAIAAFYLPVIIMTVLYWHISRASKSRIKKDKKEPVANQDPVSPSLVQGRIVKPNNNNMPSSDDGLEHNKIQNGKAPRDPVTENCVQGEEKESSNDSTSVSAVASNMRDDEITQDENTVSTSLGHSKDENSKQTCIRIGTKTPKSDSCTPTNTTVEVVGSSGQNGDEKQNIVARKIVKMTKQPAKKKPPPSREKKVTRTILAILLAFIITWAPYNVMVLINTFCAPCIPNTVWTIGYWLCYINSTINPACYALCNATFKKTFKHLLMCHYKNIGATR

Each compound was assayed against human muscarinic M1 receptor (Homo sapiens, UniProt P11229) (assay: Alphascreen Surefire phospho-ERK1/2 functional assay, M1). Conditions: CHO cells stably expressing human M1; Emax relative to ACh.
Format: cell-based
With CCOC(=O)N1CCC2C(C1)CN2C1CCC(C#N)(c2ccccc2)CC1 (single isomer, unassigned) the “M1 % Emax cf. ACh” value was 106%.
For CCc1noc(C2CC2CNC2CCC(C#N)(c3ccccc3)CC2)n1 (single isomer, unassigned), the “M1 % Emax cf. ACh” value was 92%.
For Cc1ccc2c(c1)C1(CCC(N[C@@H]3CC[C@H](c4nc(C(F)(F)F)no4)C3)CC1)C(=O)N2 (single isomer, unassigned), the “M1 % Emax cf. ACh” value was 62%.
Cc1ccc2c(c1)NC(=O)C21CCC(N[C@@H]2CC[C@H](c3nc(C)no3)C2)CC1 (single isomer, unassigned) was tested, and the “M1 % Emax cf. ACh” value was 81%.

Same assay, conditions: CHO cells stably expressing human M1; phospho-ERK1/2
For CCOC(=O)N1CCC2C(C1)CN2C1CCC(C#N)(c2ccccc2)CC1 (single isomer, unassigned), the “pEC50 M1” value was 7.05.
For CCc1noc(C2CC2CNC2CCC(C#N)(c3ccccc3)CC2)n1 (single isomer, unassigned), the “pEC50 M1” value was 6.27.
With Cc1ccc2c(c1)C1(CCC(N[C@@H]3CC[C@H](c4nc(C(F)(F)F)no4)C3)CC1)C(=O)N2 (single isomer, unassigned) the “pEC50 M1” value was 7.20.
In the case of Cc1ccc2c(c1)NC(=O)C21CCC(N[C@@H]2CC[C@H](c3nc(C)no3)C2)CC1 (single isomer, unassigned), the “pEC50 M1” value is reported as 6.45.

Each compound was assayed against human muscarinic M4 receptor (Homo sapiens, UniProt P08173) (assay: Alphascreen Surefire phospho-ERK1/2 functional assay, M4). Conditions: CHO cells stably expressing human M4; Emax relative to ACh.
Format: cell-based
CCOC(=O)N1CCC2C(C1)CN2C1CCC(C#N)(c2ccccc2)CC1 (single isomer, unassigned) was tested, and the “M4 % Emax cf. ACh” value was 63%.
CCc1noc(C2CC2CNC2CCC(C#N)(c3ccccc3)CC2)n1 (single isomer, unassigned) was tested, and the “M4 % Emax cf. ACh” value was 84%.
Cc1ccc2c(c1)C1(CCC(N[C@@H]3CC[C@H](c4nc(C(F)(F)F)no4)C3)CC1)C(=O)N2 (single isomer, unassigned) was tested, and the “M4 % Emax cf. ACh” value was 85%.
Cc1ccc2c(c1)NC(=O)C21CCC(N[C@@H]2CC[C@H](c3nc(C)no3)C2)CC1 (single isomer, unassigned) was tested, and the “M4 % Emax cf. ACh” value was 39%.

Same assay, conditions: CHO cells stably expressing human M4; phospho-ERK1/2
With CCOC(=O)N1CCC2C(C1)CN2C1CCC(C#N)(c2ccccc2)CC1 (single isomer, unassigned) the “pEC50 M4” value was 6.45.
In the case of CCc1noc(C2CC2CNC2CCC(C#N)(c3ccccc3)CC2)n1 (single isomer, unassigned), the “pEC50 M4” value is reported as 6.75.
Cc1ccc2c(c1)C1(CCC(N[C@@H]3CC[C@H](c4nc(C(F)(F)F)no4)C3)CC1)C(=O)N2 (single isomer, unassigned) was tested, and the “pEC50 M4” value was 5.36.
With Cc1ccc2c(c1)NC(=O)C21CCC(N[C@@H]2CC[C@H](c3nc(C)no3)C2)CC1 (single isomer, unassigned) the “pEC50 M4” value was 6.38.

The compounds below were run against human muscarinic M3 receptor (Homo sapiens, UniProt P20309) (assay: Alphascreen Surefire phospho-ERK1/2 functional assay, M3). Conditions: CHO cells stably expressing human M3; Emax relative to ACh.
Format: cell-based
In the case of CCOC(=O)N1CCC2C(C1)CN2C1CCC(C#N)(c2ccccc2)CC1 (single isomer, unassigned), the “M3 % Emax cf. ACh” value is reported as 1%.
Cc1ccc2c(c1)C1(CCC(N[C@@H]3CC[C@H](c4nc(C(F)(F)F)no4)C3)CC1)C(=O)N2 (single isomer, unassigned) was tested, and the “M3 % Emax cf. ACh” value was 100%.

Same assay, conditions: CHO cells stably expressing human M3; phospho-ERK1/2
For CCOC(=O)N1CCC2C(C1)CN2C1CCC(C#N)(c2ccccc2)CC1 (single isomer, unassigned), the “pEC50 M3” value was 4.7.
With Cc1ccc2c(c1)C1(CCC(N[C@@H]3CC[C@H](c4nc(C(F)(F)F)no4)C3)CC1)C(=O)N2 (single isomer, unassigned) the “pEC50 M3” value was 4.80.

Each compound was assayed against human muscarinic M2 receptor (Homo sapiens, UniProt P08172) (assay: Alphascreen Surefire phospho-ERK1/2 functional assay, M2). Conditions: CHO cells stably expressing human M2; Emax relative to ACh.
Format: cell-based
CCOC(=O)N1CCC2C(C1)CN2C1CCC(C#N)(c2ccccc2)CC1 (single isomer, unassigned) was tested, and the “M2 % Emax cf. ACh” value was 0%.
With Cc1ccc2c(c1)C1(CCC(N[C@@H]3CC[C@H](c4nc(C(F)(F)F)no4)C3)CC1)C(=O)N2 (single isomer, unassigned) the “M2 % Emax cf. ACh” value was 38%.

Same assay, conditions: CHO cells stably expressing human M2; phospho-ERK1/2
CCOC(=O)N1CCC2C(C1)CN2C1CCC(C#N)(c2ccccc2)CC1 (single isomer, unassigned) was tested, and the “pEC50 M2” value was 4.7.
In the case of Cc1ccc2c(c1)C1(CCC(N[C@@H]3CC[C@H](c4nc(C(F)(F)F)no4)C3)CC1)C(=O)N2 (single isomer, unassigned), the “pEC50 M2” value is reported as 5.12.
